Columns and labels:
[1] = test system: HCI-012/LVM2/LR10 drug-resistant, HER2+, metastatic breast cancer; assay: Breast tumor growth in patient-derived model; type: in vivo, mice; settings: treatment day 20; 375 mg/kg orally once daily; P value of 0.035
[2] = test system: B16 murine melanoma tumors; settings: topically once daily for five consecutive days, 20%

NC[C@H]1CC[C@H](C(=O)O)CC1 [tranexamic acid]
tumor volume, vehicle group relative to treatment group [1]: eight-fold | death of melanoma cells (hematoxylin and eosin tumor sections) [2]: killed melanoma cells adjacent to the skin
